How the values were obtained:
Assay type in all cases: functional
[1] = test system: Salmonella paratyphi; experiment: Antibacterial activity against Salmonella paratyphi A serotype ATCC 5702; conditions: Salmonella enterica subsp. enterica serovar Paratyphi A
[2] = test system: Staphylococcus aureus; experiment: Antibacterial activity against Staphylococcus aureus ATCC 29737
[3] = test system: Staphylococcus epidermidis; experiment: Antibacterial activity against Staphylococcus epidermidis ATCC 12228
[4] = test system: Proteus vulgaris; experiment: Antibacterial activity against Proteus vulgaris PTCC 1182
[5] = test system: Bacillus spizizenii; experiment: Antibacterial activity against Bacillus subtilis ATCC 6633
[6] = test system: Escherichia coli; experiment: Antibacterial activity against Escherichia coli ATCC 10536

Measured: MIC

GENTAMICIN
0.5 µg/mL: all assays above
